The values below are quoted from earlier work in US11130943B2, “Culture medium” (Koninklijke Nederlandse Akademie Van Wetenschappen, priority 2014, dated 2021).

The data set addresses T1, ALK5 (TGF-βR1) (Homo sapiens, UniProt P36897).
T1 sequence (P36897 34-503): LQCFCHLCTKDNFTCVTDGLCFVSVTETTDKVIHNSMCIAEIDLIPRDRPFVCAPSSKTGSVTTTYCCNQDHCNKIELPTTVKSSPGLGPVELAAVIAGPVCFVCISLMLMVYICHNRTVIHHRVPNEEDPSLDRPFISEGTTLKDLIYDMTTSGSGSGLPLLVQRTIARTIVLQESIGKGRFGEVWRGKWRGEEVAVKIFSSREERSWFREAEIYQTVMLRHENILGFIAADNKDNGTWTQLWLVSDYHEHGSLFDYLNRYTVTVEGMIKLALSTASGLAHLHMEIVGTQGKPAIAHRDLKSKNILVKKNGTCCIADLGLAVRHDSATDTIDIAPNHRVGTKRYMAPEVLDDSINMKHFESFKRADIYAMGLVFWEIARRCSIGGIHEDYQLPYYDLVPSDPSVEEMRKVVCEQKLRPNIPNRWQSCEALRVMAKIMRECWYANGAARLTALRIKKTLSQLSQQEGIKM
The following applies: p38 MAP kinase inhibitor at high concentrations; cited from earlier work.

Bounds are passed on as bounds.

For the molecule `C[S+]([O-])c1ccc(-c2nc(-c3ccc(F)cc3)c(-c3ccncc3)[nH]2)cc1` (stereo not shown) [SB-203580], the “concentration at which it is thought to inhibit ALK5” value was at least 10 µM.
